The record followed here is ChEMBL document CHEMBL3580664, “Synthesis and Pharmacology of α/β(3)-Peptides Based on the Melanocortin Agonist Ac-His-dPhe-Arg-Trp-NH2 Sequence” (ACS Med Chem Lett, 2015).

Protein sequences, listed by entry. Tags and fused reporters are not part of them. Lines headed by an entry give the natural chain unless they say otherwise; changes in a name come on top.
UniProt Q01727: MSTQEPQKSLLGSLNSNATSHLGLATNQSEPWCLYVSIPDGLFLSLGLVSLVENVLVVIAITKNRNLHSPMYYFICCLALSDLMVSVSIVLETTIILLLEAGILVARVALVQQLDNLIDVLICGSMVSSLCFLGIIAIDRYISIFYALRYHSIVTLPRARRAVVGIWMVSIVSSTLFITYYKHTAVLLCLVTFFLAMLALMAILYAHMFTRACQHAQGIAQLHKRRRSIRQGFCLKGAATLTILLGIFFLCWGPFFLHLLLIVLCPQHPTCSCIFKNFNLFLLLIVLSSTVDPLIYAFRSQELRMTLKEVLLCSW

For orientation: EC50 means the concentration needed to bring the measured effect to its halfway point.

This test concerns the target Melanocyte-stimulating hormone receptor (Mus musculus, UniProt Q01727). Description: Agonist activity at mouse MC1 receptor expressed in HEK-293 cells assessed as cAMP response measured after 2 hrs incubation by cAMP Alphascreen assay. The test is classed as functional, cell-based, HEK293.

As for `CC(=O)N[C@@H](Cc1c[nH]cn1)C(=O)N[C@@H](Cc1ccccc1)C(=O)N[C@@H](CCCN=C(N)N)C(=O)N[C@@H](Cc1c[nH]c2ccccc12)C(N)=O`, the EC50 came to 2360 nM.

For the compound `CC(=O)N[C@@H](Cc1cnc[nH]1)C(=O)N[C@H](Cc1ccccc1)C(=O)N[C@@H](CCCN=C(N)N)C(=O)N[C@@H](Cc1c[nH]c2ccccc12)C(N)=O`, the EC50 was determined as 18 nM.
